This assay concerns the target T1, Caspase-1 (Homo sapiens) (UniProt P29466).
T1 sequence (whole entry): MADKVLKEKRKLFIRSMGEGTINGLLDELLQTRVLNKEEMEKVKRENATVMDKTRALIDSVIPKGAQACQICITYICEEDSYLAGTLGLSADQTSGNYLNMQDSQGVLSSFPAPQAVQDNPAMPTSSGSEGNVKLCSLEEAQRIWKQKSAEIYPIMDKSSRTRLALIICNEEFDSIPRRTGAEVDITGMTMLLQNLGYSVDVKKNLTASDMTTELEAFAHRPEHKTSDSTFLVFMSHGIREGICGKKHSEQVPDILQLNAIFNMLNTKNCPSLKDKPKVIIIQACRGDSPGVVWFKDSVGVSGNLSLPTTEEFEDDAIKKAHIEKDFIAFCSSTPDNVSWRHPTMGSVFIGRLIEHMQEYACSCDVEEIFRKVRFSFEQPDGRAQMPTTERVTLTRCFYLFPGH
Kind of assay: Inhibitory activity against IL-1 beta converting enzyme was determined.

Take `CC(C)[C@H](NC(=O)OCc1ccccc1)C(=O)N[C@@H](C)C(=O)N[C@@H](CC(=O)O)C(=O)COC1=C(Cc2ccccc2)C(=O)OC1`: the K obs / 1 was determined as 252000 M⁻¹ s⁻¹.
`CC(C)[C@H](NC(=O)OCc1ccccc1)C(=O)N[C@@H](C)C(=O)N[C@@H](CC(=O)O)C(=O)COC(=O)c1c(Cl)cccc1Cl` had a K obs / 1 of 407000 M⁻¹ s⁻¹.
